Measured values as given in patent US20230390411A1, “CONJUGATE AND USE THEREOF” (NANJING CHEMPION BIOTECHNOLOGY CO., LTD., priority 2021, published 2023).

System: HER2-positive NCI-N87 cells
Assay: Assay of FACS binding specificity
Details: FACS binding to NCI-N87 cells; for EC50: 4° C. 1 hour, max 100 nM
Method: When the confluence of cultured NCI-N87 cells reached 70-90%, the adherent cells were digested with trypsin. The digestion was terminated with RPMI 1640 medium (Gibco, 22400-089) containing 10% FBS (ExCell Bio, FND500). The cell suspension was centrifuged at 1500 rpm at 4° C. for 5 minutes (Eppendorf, 5810R). Then the cells were resuspended by adding PBS containing 1% BSA, and the cell suspension was adjusted to a density of 1×10^6 cells/mL. 100 μL of cell suspension with 1×10^6 cells/mL was added to each well of a 96-well round-bottom microplate (Corning, 3799). The plate was centrifuged and the supernatant was discarded. ADC or monoclonal sample was serially diluted in a ratio of 1:5 (with a maximum concentration of 100 nM) in PBS containing 1% BSA, and 100 μL of the diluted sample was added to each well. The plate was incubated at 4° C. for 1 hour. At the same time, human IgG1 antibody was used as an isotype control. After the incubation was completed, each well was washed twice by adding 160 μL of PBS containing 1% BSA, and then 100 μL of goat anti-human-IgG Fc—Alexa 647 antibody diluted in a ratio of 1:500 in PBS containing 1% BSA was added as a secondary antibody. The plate was incubated at 4° C. for 30 minutes in the dark. After the incubation was completed, the plate was washed twice and the cells were resuspended in 80 μL of PBS containing 1% BSA. The fluorescence intensity was detected by flow cytometry (BD Biosciences, FACS CantoII), and the fluorescence value was expressed as mean fluorescence intensity (MFI).
The raw data obtained from the FACS assay were analyzed with FlowJo software, and the EC50 value was calculated by using GraphPad Prism 6 non-linear four-parameter non-linear regression with the sample wells not containing antibodies or in which only a secondary antibody was incubated as the background fluorescence intensity of cells.

Substance: mAb-Herceptin: naked Herceptin antibody, internalizing anti-human her2 antibody
- Max MFI (Table 1): 51000.0
- EC50 (Table 1): 1.54 nM
- Max MFI (Table 2): 106000
- EC50 (Table 2): 2.1 nM
- Max MFI (Table 3): 123000
- EC50 (Table 3): 1.38 nM
